# How the values were obtained:
# The chains behind the UniProt entries cited, without tags or fusion partners. Where a name states a change or a piece, a line headed by the entry shows the natural chain unless it says otherwise.
# UniProt P06493, whole entry, looked up: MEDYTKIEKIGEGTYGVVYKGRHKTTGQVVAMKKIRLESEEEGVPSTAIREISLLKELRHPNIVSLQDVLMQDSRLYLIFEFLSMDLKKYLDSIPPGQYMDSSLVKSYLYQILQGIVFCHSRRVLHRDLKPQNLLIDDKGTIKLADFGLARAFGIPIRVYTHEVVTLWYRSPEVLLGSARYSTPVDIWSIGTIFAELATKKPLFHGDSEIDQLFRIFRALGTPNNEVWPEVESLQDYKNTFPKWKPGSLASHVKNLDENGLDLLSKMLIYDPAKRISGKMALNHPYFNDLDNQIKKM
# UniProt Q00526: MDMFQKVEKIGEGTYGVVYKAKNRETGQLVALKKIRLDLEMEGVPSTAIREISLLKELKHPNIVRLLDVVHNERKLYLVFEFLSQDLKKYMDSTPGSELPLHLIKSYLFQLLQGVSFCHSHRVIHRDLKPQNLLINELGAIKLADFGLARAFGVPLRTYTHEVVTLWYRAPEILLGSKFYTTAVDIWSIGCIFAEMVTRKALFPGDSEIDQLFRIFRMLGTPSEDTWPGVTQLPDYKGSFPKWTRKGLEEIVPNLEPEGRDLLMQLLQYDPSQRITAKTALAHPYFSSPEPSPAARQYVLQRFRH
# UniProt P11802: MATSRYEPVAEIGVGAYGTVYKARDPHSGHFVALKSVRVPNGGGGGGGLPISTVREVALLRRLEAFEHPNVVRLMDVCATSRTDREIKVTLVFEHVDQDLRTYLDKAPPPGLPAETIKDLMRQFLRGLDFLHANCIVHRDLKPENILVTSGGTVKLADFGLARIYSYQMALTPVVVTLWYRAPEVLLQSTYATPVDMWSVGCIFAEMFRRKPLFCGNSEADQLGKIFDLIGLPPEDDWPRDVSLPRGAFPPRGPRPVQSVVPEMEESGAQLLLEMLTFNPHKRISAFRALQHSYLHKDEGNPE
# UniProt P30281: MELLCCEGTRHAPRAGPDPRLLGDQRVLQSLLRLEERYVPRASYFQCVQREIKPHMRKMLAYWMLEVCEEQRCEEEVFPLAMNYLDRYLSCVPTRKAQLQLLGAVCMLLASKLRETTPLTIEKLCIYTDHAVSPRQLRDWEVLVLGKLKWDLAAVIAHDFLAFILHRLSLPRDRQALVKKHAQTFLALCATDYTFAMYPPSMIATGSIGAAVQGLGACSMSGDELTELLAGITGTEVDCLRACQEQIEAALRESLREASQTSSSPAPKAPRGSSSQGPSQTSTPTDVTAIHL
# UniProt Q00535, whole entry, looked up: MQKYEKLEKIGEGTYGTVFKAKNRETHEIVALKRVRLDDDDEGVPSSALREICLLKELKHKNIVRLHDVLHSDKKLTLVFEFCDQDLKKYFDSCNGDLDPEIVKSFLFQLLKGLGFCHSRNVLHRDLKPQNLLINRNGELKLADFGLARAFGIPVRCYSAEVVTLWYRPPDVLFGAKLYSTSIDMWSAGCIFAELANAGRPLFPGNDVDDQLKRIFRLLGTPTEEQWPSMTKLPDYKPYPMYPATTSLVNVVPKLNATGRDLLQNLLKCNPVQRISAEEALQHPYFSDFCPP
# UniProt Q15078: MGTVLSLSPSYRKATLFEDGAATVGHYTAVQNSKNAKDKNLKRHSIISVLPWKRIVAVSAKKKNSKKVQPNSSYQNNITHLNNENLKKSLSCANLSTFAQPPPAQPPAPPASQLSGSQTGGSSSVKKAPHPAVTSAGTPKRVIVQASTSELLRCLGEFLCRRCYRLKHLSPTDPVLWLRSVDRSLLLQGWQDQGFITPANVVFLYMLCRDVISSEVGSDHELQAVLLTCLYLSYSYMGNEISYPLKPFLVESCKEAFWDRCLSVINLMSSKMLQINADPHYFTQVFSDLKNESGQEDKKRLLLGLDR
# UniProt P24385: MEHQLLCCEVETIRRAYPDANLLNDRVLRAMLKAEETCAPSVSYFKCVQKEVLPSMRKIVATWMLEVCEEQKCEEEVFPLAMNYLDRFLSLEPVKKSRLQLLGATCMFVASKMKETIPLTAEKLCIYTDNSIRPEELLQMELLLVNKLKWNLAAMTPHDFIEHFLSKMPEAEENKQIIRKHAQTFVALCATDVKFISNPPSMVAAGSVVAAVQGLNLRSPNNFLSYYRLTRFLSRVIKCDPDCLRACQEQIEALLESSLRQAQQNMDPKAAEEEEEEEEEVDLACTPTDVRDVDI
# UniProt P50613: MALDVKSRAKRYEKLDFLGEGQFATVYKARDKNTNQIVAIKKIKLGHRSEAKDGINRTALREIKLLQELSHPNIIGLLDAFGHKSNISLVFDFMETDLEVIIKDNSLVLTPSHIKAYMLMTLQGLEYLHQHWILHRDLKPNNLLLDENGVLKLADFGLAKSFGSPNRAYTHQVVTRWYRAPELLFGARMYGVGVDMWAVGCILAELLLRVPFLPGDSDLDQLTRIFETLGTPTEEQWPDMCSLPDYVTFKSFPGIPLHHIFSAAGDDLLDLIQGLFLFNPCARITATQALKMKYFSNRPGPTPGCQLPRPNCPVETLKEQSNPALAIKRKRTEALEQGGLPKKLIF
# UniProt P51948: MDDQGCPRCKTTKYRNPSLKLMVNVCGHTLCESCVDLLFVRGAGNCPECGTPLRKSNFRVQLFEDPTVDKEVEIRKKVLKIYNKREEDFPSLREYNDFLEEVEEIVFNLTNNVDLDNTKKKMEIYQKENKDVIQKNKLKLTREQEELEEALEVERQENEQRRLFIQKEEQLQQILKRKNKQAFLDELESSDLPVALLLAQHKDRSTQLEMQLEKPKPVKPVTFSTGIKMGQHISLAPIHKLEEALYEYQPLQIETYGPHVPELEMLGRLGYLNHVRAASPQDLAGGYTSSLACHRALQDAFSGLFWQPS
# UniProt Q9NYV4, whole entry, looked up: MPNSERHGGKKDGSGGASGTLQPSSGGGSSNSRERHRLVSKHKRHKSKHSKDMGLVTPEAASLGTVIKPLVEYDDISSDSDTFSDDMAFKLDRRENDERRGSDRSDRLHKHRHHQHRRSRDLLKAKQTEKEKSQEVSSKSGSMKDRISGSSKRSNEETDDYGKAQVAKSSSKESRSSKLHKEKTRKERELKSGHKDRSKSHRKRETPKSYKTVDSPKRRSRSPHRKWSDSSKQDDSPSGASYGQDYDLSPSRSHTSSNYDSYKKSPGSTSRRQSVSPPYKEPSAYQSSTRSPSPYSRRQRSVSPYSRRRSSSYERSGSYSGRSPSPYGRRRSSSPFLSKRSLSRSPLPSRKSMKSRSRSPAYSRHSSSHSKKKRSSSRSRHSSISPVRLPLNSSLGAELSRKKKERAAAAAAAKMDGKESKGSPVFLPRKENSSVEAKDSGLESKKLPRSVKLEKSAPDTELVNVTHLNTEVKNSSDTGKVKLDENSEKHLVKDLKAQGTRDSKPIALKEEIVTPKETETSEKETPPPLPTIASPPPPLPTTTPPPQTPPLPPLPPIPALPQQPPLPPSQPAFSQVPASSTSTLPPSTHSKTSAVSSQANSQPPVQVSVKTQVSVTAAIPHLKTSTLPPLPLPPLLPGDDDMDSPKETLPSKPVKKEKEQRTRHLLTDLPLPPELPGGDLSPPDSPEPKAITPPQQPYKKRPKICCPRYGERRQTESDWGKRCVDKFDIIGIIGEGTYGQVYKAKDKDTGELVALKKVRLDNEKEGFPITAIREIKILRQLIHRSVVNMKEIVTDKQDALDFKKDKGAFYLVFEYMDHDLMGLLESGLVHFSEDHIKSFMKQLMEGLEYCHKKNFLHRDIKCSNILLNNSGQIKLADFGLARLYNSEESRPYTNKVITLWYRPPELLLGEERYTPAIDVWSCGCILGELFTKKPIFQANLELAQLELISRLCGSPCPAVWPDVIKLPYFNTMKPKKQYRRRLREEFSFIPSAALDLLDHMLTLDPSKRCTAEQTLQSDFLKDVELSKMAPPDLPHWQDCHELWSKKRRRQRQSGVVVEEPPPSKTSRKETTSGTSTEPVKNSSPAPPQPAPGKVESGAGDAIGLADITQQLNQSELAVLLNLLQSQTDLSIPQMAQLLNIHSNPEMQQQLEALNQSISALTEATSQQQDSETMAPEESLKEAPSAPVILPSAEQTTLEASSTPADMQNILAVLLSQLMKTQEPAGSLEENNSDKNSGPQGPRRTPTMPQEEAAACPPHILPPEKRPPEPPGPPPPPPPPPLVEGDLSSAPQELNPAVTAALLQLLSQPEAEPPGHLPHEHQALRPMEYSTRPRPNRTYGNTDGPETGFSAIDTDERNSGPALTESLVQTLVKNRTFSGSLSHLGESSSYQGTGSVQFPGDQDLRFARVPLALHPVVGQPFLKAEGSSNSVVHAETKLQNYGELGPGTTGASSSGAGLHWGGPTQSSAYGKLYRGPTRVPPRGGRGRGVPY
# UniProt Q14004, whole entry, looked up: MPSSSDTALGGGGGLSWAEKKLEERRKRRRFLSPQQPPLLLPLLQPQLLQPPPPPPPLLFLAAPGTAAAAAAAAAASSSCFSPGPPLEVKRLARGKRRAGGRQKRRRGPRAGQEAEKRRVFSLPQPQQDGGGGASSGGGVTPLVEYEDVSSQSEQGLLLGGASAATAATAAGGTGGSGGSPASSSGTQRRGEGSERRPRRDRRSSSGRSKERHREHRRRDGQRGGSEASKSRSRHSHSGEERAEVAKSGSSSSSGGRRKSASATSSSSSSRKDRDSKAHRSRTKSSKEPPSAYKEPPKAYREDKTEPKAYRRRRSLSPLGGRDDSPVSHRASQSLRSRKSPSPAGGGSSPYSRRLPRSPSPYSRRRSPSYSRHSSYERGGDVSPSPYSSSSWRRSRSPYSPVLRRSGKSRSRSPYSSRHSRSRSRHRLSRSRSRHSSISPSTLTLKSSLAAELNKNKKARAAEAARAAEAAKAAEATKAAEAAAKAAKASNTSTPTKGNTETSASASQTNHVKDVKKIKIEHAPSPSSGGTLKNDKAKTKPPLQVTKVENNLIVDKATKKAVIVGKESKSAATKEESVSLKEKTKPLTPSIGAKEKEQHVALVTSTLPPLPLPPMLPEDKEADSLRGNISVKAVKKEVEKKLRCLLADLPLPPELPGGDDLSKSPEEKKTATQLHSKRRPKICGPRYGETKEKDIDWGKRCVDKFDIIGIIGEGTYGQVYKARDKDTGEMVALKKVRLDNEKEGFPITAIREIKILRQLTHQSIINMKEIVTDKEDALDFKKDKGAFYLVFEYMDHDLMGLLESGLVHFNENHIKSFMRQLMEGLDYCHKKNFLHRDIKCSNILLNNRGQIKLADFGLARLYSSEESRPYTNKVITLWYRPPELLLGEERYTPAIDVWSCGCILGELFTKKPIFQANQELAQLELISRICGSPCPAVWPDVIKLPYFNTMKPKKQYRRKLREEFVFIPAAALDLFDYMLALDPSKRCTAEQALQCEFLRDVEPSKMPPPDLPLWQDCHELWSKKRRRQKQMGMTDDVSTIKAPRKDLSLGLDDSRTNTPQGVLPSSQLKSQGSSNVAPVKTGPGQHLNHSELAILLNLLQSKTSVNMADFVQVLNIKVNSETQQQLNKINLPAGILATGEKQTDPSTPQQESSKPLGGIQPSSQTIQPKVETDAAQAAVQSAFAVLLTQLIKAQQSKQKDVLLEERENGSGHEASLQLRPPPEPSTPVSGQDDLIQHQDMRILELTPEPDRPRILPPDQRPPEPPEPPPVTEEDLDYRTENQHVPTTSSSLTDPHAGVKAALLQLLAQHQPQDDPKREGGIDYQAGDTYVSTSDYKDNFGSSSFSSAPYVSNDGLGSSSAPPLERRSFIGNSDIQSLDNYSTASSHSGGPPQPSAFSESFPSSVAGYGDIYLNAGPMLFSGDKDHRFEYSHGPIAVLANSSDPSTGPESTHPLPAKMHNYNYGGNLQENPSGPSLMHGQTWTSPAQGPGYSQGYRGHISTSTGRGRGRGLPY
# UniProt Q8ND76: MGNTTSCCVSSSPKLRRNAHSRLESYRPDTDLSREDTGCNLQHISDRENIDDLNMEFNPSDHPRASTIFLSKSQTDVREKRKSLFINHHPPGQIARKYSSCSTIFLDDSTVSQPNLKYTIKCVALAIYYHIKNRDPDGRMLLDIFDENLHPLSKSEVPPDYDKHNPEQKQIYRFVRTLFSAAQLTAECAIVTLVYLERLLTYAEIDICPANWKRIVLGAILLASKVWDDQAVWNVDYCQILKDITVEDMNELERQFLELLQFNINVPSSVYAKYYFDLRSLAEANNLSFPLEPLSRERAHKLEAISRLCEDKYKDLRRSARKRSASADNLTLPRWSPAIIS
# UniProt Q07002: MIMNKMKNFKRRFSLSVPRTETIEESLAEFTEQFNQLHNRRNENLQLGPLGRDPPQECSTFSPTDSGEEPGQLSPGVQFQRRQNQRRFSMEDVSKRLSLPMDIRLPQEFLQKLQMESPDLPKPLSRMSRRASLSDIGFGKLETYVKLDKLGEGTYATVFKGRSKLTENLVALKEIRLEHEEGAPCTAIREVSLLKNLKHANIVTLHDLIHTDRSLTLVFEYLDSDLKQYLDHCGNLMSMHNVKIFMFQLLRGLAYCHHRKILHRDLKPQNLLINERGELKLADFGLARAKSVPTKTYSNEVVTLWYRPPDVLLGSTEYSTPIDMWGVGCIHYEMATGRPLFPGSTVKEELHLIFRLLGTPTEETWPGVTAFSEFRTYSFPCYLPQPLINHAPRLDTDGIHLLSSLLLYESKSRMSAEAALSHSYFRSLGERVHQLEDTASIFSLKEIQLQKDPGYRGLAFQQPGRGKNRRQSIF
# Conditions in all cases: dose 500.0 nM
# [1] = target: CDK1/Cyclin A (Homo sapiens) (UniProt P06493+P20248)
# [2] = target: CDK2/Cyclin A2 (Homo sapiens) (UniProt P24941+P20248)
# [3] = target: CDK3/Cyclin E (Homo sapiens) (UniProt P24864+Q00526)
# [4] = target: CDK4/Cyclin D3 (Homo sapiens) (UniProt P11802+P30281)
# [5] = target: T1, Cyclin-dependent kinase 5/CDK5 activator 1 (Homo sapiens) (UniProt Q00535+Q15078)
# [6] = target: T1, Cyclin-dependent kinase 5/CDK5 activator 1 (Homo sapiens); remark: listed apart in the source
# [7] = target: CDK6/cyclin D3 (Homo sapiens) (UniProt P30281+Q00534)
# [8] = target: CDK6/cyclin D1 (Homo sapiens) (UniProt P24385+Q00534)
# [9] = target: CDK7/Cyclin H/MNAT1 (Homo sapiens) (UniProt P51946+P50613+P51948)
# [10] = target: CDK12/Cyclin K (Homo sapiens) (UniProt O75909+Q9NYV4)
# [11] = target: Cyclin-dependent kinase 13/Cyclin-K (Homo sapiens) (UniProt Q14004+O75909)
# [12] = target: Cyclin-Y/Cyclin-dependent kinase 16 (Homo sapiens) (UniProt Q00536+Q8ND76)
# [13] = target: CDK18/Cyclin Y (Homo sapiens) (UniProt Q07002+Q8ND76)
compound,measurement,setting,value
COc1cc(OC)c2c(=O)[nH]c(-c3ccc(C(=O)N4CC5(CCN(c6ncc7c(C)cc(=O)n(C8CCCC8)c7n6)CC5)C4)cc3)nc2c1,inhibition,[1],11.3%
same,inhibition,[2],7.13%
same,inhibition,[3],9.38%
same,inhibition,[4],45.6%
same,inhibition,[5],22%
same,inhibition,[6],5.66%
same,inhibition,[7],79.9%
same,inhibition,[8],68.4%
same,inhibition,[9],7.58%
same,inhibition,[10],3.69%
same,inhibition,[11],18.2%
same,inhibition,[12],7.37%
same,inhibition,[13],3.01%

# From ChEMBL document CHEMBL6083283, “Discovery of Dual CDK6/BRD4 Inhibitor Inducing Apoptosis and Increasing the Sensitivity of Ferroptosis in Triple-Negative Breast Cancer” (J Med Chem, 2024)
